{"source": "PubChem BioAssay AID1716", "about": "(Vanderbilt High Throughput Screening Facility, 2009)", "note": "Only a part is listed here, and it is no random draw. Results filed as inconclusive are left out. Activity calls are given as the source filed them.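 The calls were made as follows: active = thallium flux rate significantly above the same plate's solvent-only control wells, beyond their mean plus 3 SD; inconclusive = the two replicate wells gave conflicting results; inactive = the rest.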"}
{"assay": "thallium flux modulation in parental HEK cells, confirmation, counter-screen for KCC2 modulator project, cell-based, counterscreen 1 (AID 1716)", "details": "HEK293 parental cells, thallium flux FluoZin2, ouabain; at 10 µM; baseline-ratio fluorescence slope, 10–20 s after thallium"}
{"smiles": "O=c1c2cc([N+](=O)[O-])ccc2[nH]c2c([N+](=O)[O-])cc([N+](=O)[O-])cc12", "thallium flux rate (normalised fluorescence)": "active: 0.0124"}
{"smiles": "O=P(Nc1nc2ccc(Cl)cc2s1)(c1ccccc1)c1ccccc1", "thallium flux rate (normalised fluorescence)": "active: 0.0166"}
{"smiles": "C[N+]1=C2C=CC=CC=C2SC12C([N+](=O)[O-])=CC([N+](=O)[O-])=C[C-]2[N+](=O)[O-]", "note": "(stereo not drawn)", "thallium flux rate (normalised fluorescence)": "active: 0.021"}
